Measured values reported in ChEMBL document CHEMBL1158399, “Synthesis, biological evaluation and molecular modeling of oxoisoaporphine and oxoaporphine derivatives as new dual inhibitors of acetylcholinesterase/butyrylcholinesterase” (Eur J Med Chem, 2009).

Experiment: Selectivity ratio of IC50 for equine serum BuChE to IC50 for electric eel AChE
How it was run: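 Modified Ellman assays with electric eel AChE and equine serum BuChE (enzyme stocks 2.0 units/mL). AChE substrate was acetylthiocholine chloride (0.01 M stock), in phosphate buffer pH 8.0 with DTNB (0.01 M stock), after 15 min inhibitor preincubation. A412 read over 1 min at 37 °C. IC50s are means ± SEM of three experiments; ratio = IC50(BuChE)/IC50(AChE).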

SMILES: Nc1ccc2c(c1)C(=O)c1cccc3ccnc-2c13
- Ratio IC50: > 4
